Reference: patent US10596259B2, “Tumor radiosensitization with monomethyl auristatin E (MMAE) and derivatives thereof” (The Regents of the University of California, priority 2015, dated 2020)

How the values were obtained:
CAL-27 cells [1] = assay: Cy5 fluorescence imaging and flow cytometry cell binding; type: cell-based, Human; conditions: for cell surface binding (Cy5, flow cytometry): 0-5 nM on ice 15 minutes
Description: (§1) Cells were then washed with PBS and incubated in media with 10% serum. At indicated times, cells were fixed in 4% paraformaldehyde and then stained with DAPI. Cells were imaged using a Nikon AIR confocal microscope.
(§2) Cells were collected and resuspended in cold PBS with 5% BSA. […] Cells were washed, resuspended in PBS with 5% BSA and 0.5 ug/ml propidium iodide, and analyzed by flow cytometry.

CAL-27 cells [2] = assay: Alamar Blue cell viability assay; type: cell-based, Human; conditions: 72 hours
Description: (§3) Alamar Blue (resazurin) was added to the cells and allowed to incubate for 2 hrs at 37° C. Plates were analyzed using a plate reader with fluorescence measured at 560 nm.

SCC-35 cells = assay: Alamar Blue cell viability assay; type: cell-based, Human; conditions: 72 hours
Description: as §3

SCC-61 cells = assay: Alamar Blue cell viability assay; type: cell-based, Human; conditions: 72 hours
Description: as §3

SQ-9G cells [3] = assay: Alamar Blue cell viability assay; type: cell-based, Human; conditions: 72 hours
Description: as §3

LN-229 cells [4] = assay: Alamar Blue cell viability assay; type: cell-based; conditions: concentrations of up to 100 nM, 72 hours
Description: (§4) Cells were plated in 96 well plates and exposed to a range of concentrations of MMAE or paclitaxel for 72 hrs. Alamar Blue (resazurin) was added to the cells and allowed to incubate for 2 hrs at 37° C. Plates were analyzed using a plate reader with fluorescence measured at 560 nm.

CAL-27 cells [5] = assay: Neutral comet assay; type: cell-based, Human; conditions: for comet tail length vs vehicle: non-irradiated cells, overnight treatment; for comet tail length in irradiated cells vs vehicle irradiated: overnight treatment (cetuximab-Cy5 5 nM), then 6 Gy
Description: (§5) Cells were harvested 15 minutes post IR, suspended in agarose gel and lysed per assay directions (Trevigen). Samples underwent electrophoresis under neutral conditions and were then stained with Sybr Green. Comet tails were counted in multiple fields (>60 cells per sample) and analyzed using CometScore (TriTek Corp).

LN-229 cells [6] = assay: Neutral comet assay; type: cell-based; conditions: pre-treatment, then 6 Gy; low EGFR expressing
Description: as §5

CAL-27 cells [7] = assay: Clonogenic assay with IR; type: cell-based, Human; conditions: for surviving fraction at 2 Gy: cetuximab-MMAE-Cy5 0.5 nM or 2 nM, cetuximab-Cy5 2 nM, overnight
Source text: Following IR, cells were counted, re-plated at varying cell numbers in drug free media. 10-14 after initial seeding formed colonies were methanol fixed, stained with crystal violet and counted.

CAL-27 tumor xenografts [8] = assay: In vivo tumor xenograft growth with or without IR; parameters: species or system mice; conditions: for tumor growth, non-irradiated tumors: day 0 iv: 0.5 nmoles antibody or 2 nmoles free MMAE, no IR
Description: CAL-27 tumor xenografts were established and tumor growth was measured with digital calipers. Tumor volume was calculated using the formula as ½*Length*Width^2. Mice were randomized into groups once the average tumor volume reached >150 mm^3. Mice were assigned to indicated groups in the Results. […] Free MMAE was injected on an equimolar basis to ACPP-cRGD-MMAE in final volume of 3% DMSO. MMAE doses and IR fractionation are as indicated in the Results.

Cal-27 GFP flank tumors = assay: Frozen block face imaging of Cy5 localization; type: in vivo, mice; conditions: cetuximab-Cy5 5 nanomoles 24 hr; RACPP 10 nanomoles 2 hr
Source text: Both sets of tumors were flash frozen in liquid N2 and imaged using the frozen block face technique. Green is GFP expressed in the tumor cells, magenta is Cy5 fluorescence. Magenta is used for the benefit of colorblind referees: see Wong (2011) Nature Methods 8: 441. A) and C) are lower magnification images that show labeling of the tumor cells (T) in the context of stroma (S) and surrounding normal muscle (M).
Frozen block face imaging will give fluorescence maps of where the Cy5-labeled mAb or ACPP is ending up in a tumor and its surrounding tissue with minimal perturbation or manipulation to signal. The tissue is fresh-frozen, fast enough to minimize cellular damage, so there is no perfusion or fixation artifact, allowing the signal in the blood and vessels to be preserved. A block face is cut, up to a centimeter across, and imaged on a Nikon confocal microscope while still frozen, while keeping the objective thermal insulation. We already have multiple tumor models with GFP and intend to label others with a red FP, allowing for easy visualization on both a macro and a micro scale. […] See, FIG. 46A-D for an exemplary comparison of Cy5 fluorescence showing different localizations of a mAb, cetuximab, vs. our standard ACPP ((SEQ ID NO:4) PLGC(Me)AG Cy5/Cy7-labeled RACPP). […]

HCT-116 cells [9] = assay: Alamar Blue cell viability assay; type: cell-based, Human; conditions: 72 hours
Description: as §4, with “plates at varying cell densities” for “plates”, “to” for “to a”, “(also known as resazurin)” for “(resazurin)”, “nm. For irradiated cells, cells were treated with MMAE overnight followed by 6 Gy.” for “nm.”
as §4
Cells were plated in 96-well plates and exposed to MMAE or paclitaxel for 72 hours and analyzed at 560 nm. For irradiated cells, cells were treated with MMAE overnight followed by 6 Gy.

LN-229 cells [10] = assay: Cy5 fluorescence cell binding; type: cell-based; conditions: low EGFR-1 expression
Description: as §1, §2

A549 cells [11] = assay: Flow cytometry cell surface binding; type: cell-based, Human; conditions: live cells, on ice
Description: as §2

HCT-116 cells [12] = assay: Flow cytometry cell surface binding; type: cell-based, Human; conditions: live cells, on ice
Description: as §2

[13] = test system: SQ-9G, SCC-35 and SCC-61 cells; assay: Confocal microscopy binding and internalization; type: cell-based, Human; conditions: 4 hrs following exposure
Description: as §1

A549 cells [14] = assay: Alamar Blue cell viability assay; type: cell-based, Human; conditions: 72 hours
Description: as §4

SCC-25 cells = assay: Neutral comet assay; type: cell-based, Human; conditions: overnight treatment, then 6 Gy
Description: as §5

SQ-9G cells [15] = assay: Neutral comet assay; type: cell-based, Human; conditions: overnight treatment, then 6 Gy
Description: as §5

[16] = test system: CAL-27, SCC-61, SCC-35, SQ-9G, A549 and HCT-116 tumor xenografts; assay: In vivo tumor xenograft optical imaging (Cy5); parameters: species or system mice; conditions: 0.5 nmoles iv; for persistence / retention in tumor xenografts: Cy5 fluorescence
Description: (§6) All animal work was done in compliance with the UCSD Institutional Animal Use and Care Committee. 6-8 week old female athymic nu/nu mice purchased from the UCSD Animal Care Program breeding colony were injected subcutaneously into the bilateral upper thighs with 5×10^6 CAL-27, SQ9-G, SCC-35, SCC-61, A549, HCT-116 or LN-229 tumor cells in a 1:1 Matrigel (BD) and PBS solution. […] For imaging, mice were anesthetized (1:1 mixture of 100 mg/ml of ketamine and 5 mg/ml of midazolam). Animals were imaged using a Maestro Small Animal Imager (CRI) with excitation filter of 620/22 nm and 645 nm long pass emission filter with dichroic filter tuned to 670 nm. Imaging was done both with skin on and after skin removal to decrease autofluorescence and scattering.

LN-229 tumor xenografts = assay: In vivo tumor xenograft optical imaging (Cy5); parameters: species or system mice; conditions: 0.5 nmoles iv; low EGFR expressing
Description: as §6

CAL-27 tumor xenografts [17] = assay: Immunohistochemistry for pS10 histone H3; type: in vivo, mice; conditions: harvested 1 day after injection
Source text: Xenograft tumor tissue was fixed in formalin, processed, and embedded in paraffin wax. Four micron thick tissue sections were cut and mounted on positively-charged glass slides. The tissue was then stained with H&E and an antibody to pS10 histone H3 using a Ventana Discovery Ultra (Ventana Medical Systems). The primary antibody was used at a 1:250 dilution and was visualized using DAB as a chromagen with the UltraMap system (Ventana Medical Systems).

CAL-27 cells [18] = assay: Cell cycle analysis by flow cytometry (PI); type: cell-based, Human; conditions: 5 nM, 24 hrs
Description: Cells were treated with RNAse, stained with propidium iodide (PI) and analyzed by FACS using FloJo software.

Substance: cetuximab-Cy5
- intracellular persistence of Cy5 fluorescence (CAL-27 cells [1]; 2 nM at 37°): ≥ 48 h
- Cy5 fluorescence localization (CAL-27 cells [1]; 2 nM at 37°, by 2 hrs): localized to the cell surface and was internalized
- effect on cell survival (CAL-27 cells [2]; dose of 10 nM): minimal effect on cell survival
- sensitivity of cells (CAL-27 cells [2]; doses up to 100 nM): relatively resistant
- sensitivity of cells (SCC-35 cells; dose above 10 nM): modest sensitivity
- sensitivity of cells (SCC-61 cells; doses up to 100 nM): relatively resistant
- sensitivity of cells (SQ-9G cells [3]; dose above 10 nM): modest sensitivity
- effect on cell viability (LN-229 cells [4]): no appreciable effect on cell viability
- comet tail length vs vehicle (CAL-27 cells [5]): no significant increase in comet tail length
- comet tail length in irradiated cells vs vehicle irradiated (CAL-27 cells [5]): not significantly enhanced
- comet tail length in irradiated cells vs vehicle irradiated (LN-229 cells [6]): no further increased comet tail length
- surviving fraction at 2 Gy (CAL-27 cells [7]): did not affect survival of irradiated cells
- tumor growth, non-irradiated tumors (CAL-27 tumor xenografts [8]): delayed tumor growth
- localization within tumor (Cy5) (Cal-27 GFP flank tumors): homing to EGFR expressing tumor cells

Substance: cetuximab-MMAE-Cy5: cetuximab conjugated to MMAE via valine-citrulline linker and to Cy5
- IC50 higher than that of free MMAE (HCT-116 cells [9]): up to 100 fold
- cell surface binding (Cy5, flow cytometry) (CAL-27 cells [1]): dose dependent manner
- cell surface binding (Cy5, flow cytometry) (CAL-27 cells [1]; listed as cetuximab-MMAE): continued dose responsive cell surface binding
- cell binding (Cy5) (LN-229 cells [10]): did not bind appreciably
- cell surface binding (Cy5 fluorescence) compared with CAL-27 (A549 cells [11]): decreased Cy5 cell surface fluorescence
- cell surface binding (Cy5 fluorescence) compared with CAL-27 (HCT-116 cells [12]): decreased Cy5 cell surface fluorescence
- binding and internalization [13]: internalized
- IC50 (SCC-35 cells): 0.6 nM
- IC50 (SCC-61 cells): 1.2 nM
- IC50 (SQ-9G cells [3]): 0.2 nM
- effect on cell viability (LN-229 cells [4]): no appreciable effect on cell viability
- IC50 higher than that of free MMAE (A549 cells [14]): up to 100 fold
- comet tail length vs vehicle (CAL-27 cells [5]): no significant increase in comet tail length
- comet tail length in irradiated cells vs vehicle irradiated (CAL-27 cells [5]): significantly increased comet tail length
- comet tail length in irradiated cells (SCC-25 cells): significantly increased comet tail length
- comet tail length in irradiated cells (SQ-9G cells [15]): significantly increased comet tail length
- comet tail length in irradiated cells vs vehicle irradiated (LN-229 cells [6]): no further increased comet tail length
- clonogenic cell survival curve (CAL-27 cells [7]; 2 nM overnight, then 0-6 Gy): significantly decreased the surviving fraction
- surviving fraction at 2 Gy (CAL-27 cells [7]): significantly decreased
- tumor Cy5 signal [16]: strong Cy5 signal
- persistence / retention in tumor xenografts [16]: 72 h
- persistence / retention in tumor xenografts ([16]; listed as cetuximab-MMAE-IR): at least 48 hrs
- tumor Cy5 signal (LN-229 tumor xenografts): did not
- increase in staining for pS10 histone H3 compared to cetuximab-Cy5 (CAL-27 tumor xenografts [17]): 75%
- tumor xenograft growth delay with addition of IR (CAL-27 tumor xenografts [8]; 0.5 nmoles day 0, 3 Gy on day 1 and 2): increased tumor xenograft growth delay
- tumor growth, non-irradiated tumors (CAL-27 tumor xenografts [8]): further increased
- tumor volume vs cetuximab and MMAE co-delivery (CAL-27 tumor xenografts [8]; non-irradiated mice): non-significant decrease in tumor volume

Substance: cetuximab: therapeutic EGFR antibody
- cells in G2/M (CAL-27 cells [18]): 14%
